Laboratory results as given in patent US20040171650A1, “Novel anthelmintic and insecticidal compositions” (priority 2003, published 2004).

Amino acid sequences for entries named in this document (tags omitted). Residues count along the entry.
UniProt Q7KRX1, 1-357: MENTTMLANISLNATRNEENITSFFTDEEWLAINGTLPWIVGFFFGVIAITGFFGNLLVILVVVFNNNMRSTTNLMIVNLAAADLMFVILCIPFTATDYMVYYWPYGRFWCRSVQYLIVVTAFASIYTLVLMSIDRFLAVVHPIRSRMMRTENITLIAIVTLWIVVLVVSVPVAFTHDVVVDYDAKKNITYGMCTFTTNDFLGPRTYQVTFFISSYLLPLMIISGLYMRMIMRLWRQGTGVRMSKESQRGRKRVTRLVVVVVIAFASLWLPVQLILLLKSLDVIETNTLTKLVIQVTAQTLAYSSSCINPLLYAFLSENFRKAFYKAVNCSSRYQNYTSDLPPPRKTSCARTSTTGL

Target: DAR-2 (Drosophila melanogaster, UniProt Q7KRX1)
Experiment: DAR-2 (allatostatin receptor) calcium response FLIPR assay in transfected CHO cells
Conditions: CHO cells transfected with DAR-2 DNA; calcium signal (Fluo-3AM, FLIPR)
Description: Compounds of the invention were evaluated in an allatostatin receptor binding assay as has been described (Larsen, M. J. et. al., Biochemical and Biophysical Reseach Communications, 2001, 286, 895-901; Lowery, D. E., et. al., 2001, WO 01/31005). Anthelmintic activity was evaluated in a Ascaris suum muscle tension assay as has been described (Bowman, J. W., et. al., J Neurophys., 1995, 74(5), 1880-8; Davis, R. E., et. al., J. Neurosci., 1989, 9, 403-414).
As previously described (Larsen op.cit.), CHO cells were transfected with the DAR-2 DNA on 10 cm plates ([…]) and were trypsinized 24 h after transfections and were plated at a density of 2×10^4 cells/well in black-walled, 96-well plates and incubated for an additional 24 hrs at 37° C./5% CO2 either with or without pertussis toxin (PTX, 100 ng/ml). On the day of treatment, the media were aspirated, the cells were washed with HBBS/HEPES (Hank's Balanced Salt Solution, supplemented with 10 mM HEPES) and incubated with 4 μM Fluo-3AM in HBSS/HEPES, additionally supplemented with 2.5 mM probenecid to inhibit multi drug resistant pump (0.1 ml/well) for 1 h at 37° C./5% CO2. Plates were washed twice with warm HBSS/HEPES/ probenecid buffer immediately prior to activation of the calcium response and 100 μl buffer/per well was left after the last wash. A calcium response was initiated by the addition of candidate receptor agonist compounds (2× concentration in HBSS/HEPES, 100 μl/well). The DSK-R1/SHEP cells were loaded for 1 h at 37° C./5% CO2 with 4 μM calcium green/0.02% pluronic acid in modified Earle's balanced salt solution containing 4 mM CaCl2 dihydrate, 0.8 mM MgSO4.7H2O, 20 mM NaCl, 20 mM Tris-HEPES, 120 mM N-methyl-D-glucamine/HCl, 5.3 mM KCl, […], and 9 mM Tris base. Fluorescence was measured on a 96-well plate-based fluorescence imaging plate reader (FLIPR) with an argon laser (Molecular Devices, Sunnyvale, Calif.). Basal fluorescence of cells was measured for 20 seconds prior to addition of candidate agonist and the basal fluorescence level was subtracted from the response signal. The calcium signal was measured for approximately 200 seconds with readings every two seconds. Calcium ionophore A23187 was used as a control for non-receptor specific calcium release. […]

Row | SMILES | IC50 [nM]
1 | COc1ccc(-n2c(SCC(=O)c3ccc(F)cc3)nnc2-c2ccncc2)cc1 | 898
2 | COc1ccc(C(=O)CSc2nnc(-c3ccncc3)n2-c2ccc(OC)cc2)cc1 | 34
3 | COc1ccc(-n2c(SCC(=O)c3ccc(Cl)cc3Cl)nnc2-c2ccncc2)cc1 | 414
4 | COc1ccc(C(=O)CSc2nnc(-c3ccncc3)n2-c2ccc(Cl)cc2)cc1 | 0.0027
5 | COc1ccc(-n2c(SCC(=O)c3ccc(Cl)cc3)nnc2-c2ccncc2)cc1 | 0.002
6 | O=C(CSc1nnc(-c2ccncc2)n1-c1ccccc1F)c1ccc(Cl)cc1Cl | 0.16
7 | Cc1ccc(-n2c(SCC(=O)c3ccc(Cl)cc3Cl)nnc2-c2ccncc2)cc1 | 4800
8 | COc1ccc(-n2c(SCC(=O)c3ccc(F)cc3)nnc2-c2ccsc2)cc1 | 14600
